# Nrf2 ARE act: activators of Nrf2 (ARE) signaling; AREc32 ARE-luciferase reporter (MCF7-derived line), luminescence, 24 h; Potency, µM (top dose mostly 46.1 µM), inactives show at the highest dose activation, usual class: activators; 410,000 compounds, 0.31% hits; AID 624171; further: potency means the concentration at half of the fitted maximal effect; % of control where 0% means no effect; nearly all actives have a fitted effect of over 65% in size
#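 Luciferase luminescence (Steady-Glo, 30 min at room temperature) served as the read-out of ARE activation in AREc32 cells treated with compounds for 24 hr at 37 deg C.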
# PI4K2A block: blocks human PI4K2A kinase activity; 420,000 compounds, 0.13% hits; activity change, negative = inhibition, % at 76.9 µM; Q9BTU6; purified PI4K2A, ADP-Glo luminescence, 1 h; active compounds read low; in the data active means activity change below about -50%; inconclusive means mostly about -30% to -49%;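 further: -100% = wells without enzyme as full effect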
#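 In this quantitative HTS, ADP production by PI4K2A was quantified luminescently after 1 h at ambient temperature; 100 microM adenosine served as plate-quality control.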
# GALK inh: blocks human galactokinase activity; Potency, µM (highest dose often 57.5 µM), inactives show at the highest dose activity change, negative = inhibition, hits mostly inhibitors; P51570; 270,000 compounds, 0.007% hits; Purified GALK, Kinase-Glo residual ATP luminescence; further: potency means the concentration at half of the fitted maximal effect; on the % scale 0 is the no-effect control and ±100 the full control effect
#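 Kinase-Glo Plus luminescence measured ATP left after a 1 h room-temperature reaction. The reaction used 5 nM GALK, 100 uM galactose and 35 uM ATP at pH 8.0 (20 mM HEPES, 5 mM MgCl2, 60 mM NaCl, 1 mM DTT, 0.01% BSA).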
# Nrf2 inh: Nrf2 pathway inhibition. A549 ARE-Fluc reporter, luciferase luminescence, 18-24 h. Potency, µM (top dose mostly 46 µM), for inactives: top-dose activity change, negative = inhibition, actives largely listed as inhibitors. 360,000 compounds, 2.1% hits; further: potency means the concentration at half of the fitted maximal effect; on the % scale 0 is the no-effect control and ±100 the full control effect; nearly all actives have a fitted effect of over 60% in size
#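 Concentration-response testing used A549 ARE_Fluc cells at 5000 cells/well. Following an 18-24 h compound incubation, viability was read by fluorescence (Ex 405/Em 525) and luciferase output by luminescence.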
# miR-21 FLuc: miR-21 reporter, rising signal. HeLa miR-21 FLuc reporter, luciferase, 48 h. Potency, µM (highest dose often 38.3 µM), for the others: at the highest dose reporter change, positive = more light. 340,000 tested, under 10 active. AID 2288; active = well fitted rising curve with a large enough effect; inconclusive = small, poorly fitted or top-dose-only effect; inactive = no such curve, though single readings can be large or run the other way;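 further: % of control where 0% means no effect; miR-21 action dims this reporter so a rising signal means less miR-21 action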
#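 Luminescence from a firefly luciferase reporter carrying a miR-21 binding site downstream, stably expressed under a CMV promoter in HeLa cells that make miR-21 endogenously, reports miRNA modulation after 48 h compound exposure up to approximately 40uM final.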
# A549 tox: kills or reduces viability of A549 cells in Nrf2 counter-screen | A549 ARE-Fluc cells, CellTiter-Fluor viability, 18-24 h | Potency, µM (titrated, usually from 46 µM), inactives show at the highest dose activity change, negative = cytotoxicity, actives largely listed as inhibitors | 390,000 compounds, 0.16% hits | AID 504648; further: potency means the concentration at half of the fitted maximal effect; on the % scale 0 is the no-effect control and ±100 the full control effect
#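 A549 ARE-Fluc cells in 5% FBS OPTI-MEM, 5000 cells/well, rested 2 h then exposed to compounds in concentration-response for 18-24 h at 37 °C. Viability by CellTiter-Fluor fluorescence (Ex 405/Em 525) after 30 min; luciferase luminescence (BugLite, 15 min, RT) read afterwards.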
# Active calls of the source: *; ? = inconclusive; . = not tested or not shown; [ ] = dose if it differs, or a comment. The list is not random: actives were taken first. Their share in the collection is about 2.2%. Unless noted, the call rests on the fitted dose curve; in most records, active means well fitted curve in the direction sought with a large enough effect; inconclusive means small, poorly fitted or top-dose-only effect, or another doubt; inactive means no such curve, though single readings can be large; an effect the other way counts as inactive or inconclusive.
no.	molecule	A549 tox	Nrf2 ARE act	Nrf2 inh	miR-21 FLuc	PI4K2A block	GALK inh
1	Cc1ccc(Cl)cc1N1CCN(C(=O)c2cc3ccc4cccnc4c3[nH]2)CC1	6.1%	-0.6%	16.5%	-7.9%	-75.6*	.
2	CC(=O)Nc1ccc(/C=C/COC(C)=O)cc1C	.	.	.	.	-1.8	.
3	COC(=O)C1=C(C(=O)OC)[C@@]2([C@@H](Cc3ccc(C)cc3)Nc3ccccc3)C=C[C@@H]1O2	.	.	.	.	14.7	.
4	CC1(C)CC[C@]2(C(=O)n3ccnc3)CC[C@]3(C)[C@H](C(=O)C=C4[C@@]5(C)C=C(C#N)C(=O)C(C)(C)[C@@H]5CC[C@]43C)[C@@H]2C1	6.51µM*	1.12µM*	5.8µM*	.	-7.4	.
5	O=C1N=c2ccccc2=C1c1sc(Nc2cccc(O)c2)nc1O	-4.0%	?	3.2%	-16.3%	1.5	-0.4%
6	O=C1N=c2ccccc2=C1c1sc(Nc2ccc(O)cc2)nc1O	-12.6%	25.9%	17.2%	-57.4%	-64.7*	-5.6%
7	COCCN(CCOC)C(=O)c1ccc(CSc2nc3ccccc3s2)cc1	-16.8%	5.5%	13µM*	-12.0%	-1.5	8.0%
8	NNC(=O)c1ccc(CSc2nc3ccccc3s2)cc1	8.5%	11.2%	10.1%	-23.4%	3.0	3.2%
9	COc1ccc(C(C(=O)N(C)C2CCCC2)N(Cc2ccc(F)cc2)C(=O)c2csc3ccc(Cl)cc23)cc1OC (stereo not drawn)	.	.	.	.	-1.0	.
10	O=c1ccc(N=Nc2ccccc2)ccc1O	16.4µM*	21.9%	?	8.4%	-60.0*	11.8%
11	COc1ccc(NC(=O)C(CCCCNC(=O)OC(C)(C)C)NC2(C(=O)NCCc3c[nH]c4ccccc34)CCCCC2)cc1 (stereo not drawn)	.	.	.	.	0.0	.
12	O=C(CN1CCN(c2ccccn2)CC1)Nc1ccc(OCc2ccccc2)cc1	-12.7%	2.5%	20.6µM*	6.4%	-3.3	2.2%
13	O=C(CN1CCN(c2ccccn2)CC1)Nc1cccc(S(=O)(=O)N2CCCC2)c1	-4.4%	-0.8%	11.6µM*	5.2%	-4.4	1.0%
14	O=C(CCCC1=NS(=O)(=O)c2ccccc2N1)N1CCN(c2ccccc2Cl)CC1	.	.	.	.	3.2	.
15	Cn1c(N=Nc2ccccc2)nc2ccccc21	?	?	?	25.5%	-87.3*	9.8%
16	Cn1c(Cl)nc2ccccc21	2.6%	0.2%	2.9%	-6.4%	0.4	0.1%
17	CCn1c(NCc2ccc(N(C)C)cc2)nc2ccccc21	9.2%	2.0%	22.8%	-35.7%	-1.3	4.0%
18	CN(C)c1ccc(N=Nc2nc3ccccc3n2C)cc1	-4.6%	-4.0%	-18.4%	-31.6%	-69.5*	19.9%
19	O=C(OC12CCCN(C1)/C(=C/c1ccc(Cl)cc1)C2)c1ccccc1 (stereo not drawn)	.	.	.	.	-0.8	.
20	O=C1c2cccc(NCCCNCCO)c2C(=O)c2cccc(NCCCNCCO)c21	18.4µM*	-1.4%	?	.	-22.8	.
21	Cc1c(P(=S)(c2ccccc2)c2ccccc2)c2ccccc2n1CCCc1ccccc1	4.3%	.	4.5%	.	.	.
22	Cc1ccc(-c2nnc(Nc3ccccc3)c3ccccc23)cc1S(=O)(=O)NCC1CCCO1 (stereo not drawn)	-2.8%	0.0%	?	12.4%	-4.3	3.5%
23	Cc1ccc(C)c(Nc2nnc(-c3ccc(C)c(S(=O)(=O)NCC4CCCO4)c3)c3ccccc23)c1 (stereo not drawn)	-11.8%	5.0%	23.1µM*	?	-1.2	.
24	CC(=O)c1c(C)[nH]c(C(=O)Nc2ccccc2C)c1C	.	.	.	.	0.3	.

# In the list so far, 5 have a Cl atom.
no.	molecule	A549 tox	Nrf2 ARE act	Nrf2 inh	miR-21 FLuc	PI4K2A block	GALK inh
1	Cc1ccc(Cl)cc1N1CCN(C(=O)c2cc3ccc4cccnc4c3[nH]2)CC1	6.1%	-0.6%	16.5%	-7.9%	-75.6*	.
9	COc1ccc(C(C(=O)N(C)C2CCCC2)N(Cc2ccc(F)cc2)C(=O)c2csc3ccc(Cl)cc23)cc1OC (stereo not drawn)	.	.	.	.	-1.0	.
14	O=C(CCCC1=NS(=O)(=O)c2ccccc2N1)N1CCN(c2ccccc2Cl)CC1	.	.	.	.	3.2	.
16	Cn1c(Cl)nc2ccccc21	2.6%	0.2%	2.9%	-6.4%	0.4	0.1%
19	O=C(OC12CCCN(C1)/C(=C/c1ccc(Cl)cc1)C2)c1ccccc1 (stereo not drawn)	.	.	.	.	-0.8	.

# Remaining list, next part:
no.	molecule	A549 tox	Nrf2 ARE act	Nrf2 inh	miR-21 FLuc	PI4K2A block	GALK inh
25	CCOC(=O)c1c(Nc2ccc(C)cc2)nnc(-c2ccccc2)c1-c1ccccc1	-14.5%	1.0%	18.4µM*	24.7%	-6.2	.
26	COCCCNC(=O)C[C@H]1C[C@@]2(C(=O)OC)C(=C[C@H](C(C)C)O[C@@H]2C2CC2)N(CCC2=CCCCC2)C1=O	.	.	.	.	0.6	.
27	CO/N=C(\C(=O)O)c1csc(NC(=O)CCl)n1	.	.	.	.	-5.1	.
28	CCCn1c(N/N=C\C=C\c2ccccc2)nc2c1c(=O)[nH]c(=O)n2C	0.0%	9.9%	9.2µM*	-4.4%	-4.1	14.6%
29	O=C(NCCc1ccccc1)c1nc(-c2ccc(Cl)cc2)n2c1CCCCC2	-28.9%	-0.5%	?	10.8%	0.0	.
30	CCOc1ccccc1CNC(=O)c1nc(-c2ccc(Cl)cc2)n2c1CCCCC2	-10.3%	2.9%	23.1µM*	3.1%	-2.1	.
31	CC(C)N(Cc1ccccc1)C(=O)c1nc(-c2ccc(Cl)cc2)n2c1CCCCC2	-12.5%	0.8%	20.6µM*	?	3.8	.
32	O=C(c1ccc(Oc2ccc([N+](=O)[O-])cc2)cc1)N1CCCCCC1	-10.3%	0.3%[9.22 µM]	5.8µM*	10.6%	-2.9	-2.2%
33	NCCCNc1ncnc2ccc(-c3ccc4c(c3)OCO4)cc12	-7.6%	.	0.0%	.	.	.
34	O=C(/C=C/c1ccccc1Cl)c1ccccc(=O)c1O	?	?	?	?	-7.8	.
35	Cc1ccc(C)c(/C=C/C(=O)c2ccccc(=O)c2O)c1	?	?	23.1µM*	?	-3.1	.
36	Cc1ccc(/C=C/C(=O)c2ccccc(=O)c2O)c(C)c1	?	28.1%	20.6µM*	17.6%	-2.4	.
37	Cc1cccc(NC(=O)COc2ccc(-c3nn(C)c(=O)c4ccccc34)cc2)c1	?	-2.7%	23.1µM*	9.5%	-4.8	-1.2%
38	O=C(NCCn1cc(SCc2ccccc2Cl)c2ccccc21)c1cccs1	-2.0%	-0.4%	16.4µM*	11.4%	-5.0	.
39	Fc1ccc(CSc2ccc3nnc(-c4cccnc4)n3n2)cc1	-1.1%	-0.4%	9.2µM*	1.3%	5.8	7.4%
40	CCCCNC(=O)C[C@H]1C[C@@]2(C(=O)OC)C(=C[C@H](C(C)(C)C)O[C@@H]2C)N(Cc2cccc3ccccc23)C1=O	.	.	.	.	0.1	.
41	Nc1nc(Cl)nc2c1ncn2[C@@H]1O[C@H](COP(=O)(O)OP(=O)(O)OP(=O)(O)O)[C@@H](O)[C@H]1O	.	.	.	.	-3.6	.
42	CC(C)(O)c1cc2ccc(C#Cc3ccsc3)cc2c(=O)o1	0.7%	5.01µM*	14.1%	.	3.2	.
43	O=C(OC12CCCN(C1)/C(=C/c1ccncc1)C2)C1CCCCC1 (stereo not drawn)	.	.	.	.	-1.3	.
44	Cc1nc(N2CCN(S(=O)(=O)c3ccc(F)cc3)CC2)c2c(-c3cccs3)csc2n1	4.9%	-0.2%	16.4µM*	21.0%	5.7	-1.8%
45	CCOC(=O)Cc1ccc2sc(-c3ccccc3)nc2c1	0.4%	11.4%[9.22 µM]	9.1%	-69.6%	-71.7*	7.3%
46	CCOC(=O)c1sc(-c2ccccc2)nc1C	?	?	?	-25.0%	4.9	-0.5%
47	CCOC(=O)CC[C@@]1(C(=O)OCC)C[C@@H](CC(=O)N2CCOCC2)C(=O)N2CCCC=C21	.	.	.	.	2.2	.
48	O=[N+]([O-])c1ccccc1N/N=C/c1c[nH]c2ccccc12	-27.3%	3.55µM*	?	-49.6%	-9.7	0.2%
49	Cc1ccccc1CC(=O)Nc1nnc(-c2cccnc2)s1	.	.	.	.	4.5	.
50	COc1cccc(-n2nnnc2S(C)(=O)=O)c1	?	?	10.3µM*	?	51.3	1.1%
51	COc1cccc(OCC(=O)Nc2ccccc2-c2ccccc2)c1	6.5%	0.5%	-22.7%	7.3%	-13.7	-0.4%
